Assay results from ChEMBL document CHEMBL2177038 (J Med Chem, 2012).

Sequences of proteins named here, by UniProt entry; tags and fusion partners are left off.
UniProt P34972, whole entry: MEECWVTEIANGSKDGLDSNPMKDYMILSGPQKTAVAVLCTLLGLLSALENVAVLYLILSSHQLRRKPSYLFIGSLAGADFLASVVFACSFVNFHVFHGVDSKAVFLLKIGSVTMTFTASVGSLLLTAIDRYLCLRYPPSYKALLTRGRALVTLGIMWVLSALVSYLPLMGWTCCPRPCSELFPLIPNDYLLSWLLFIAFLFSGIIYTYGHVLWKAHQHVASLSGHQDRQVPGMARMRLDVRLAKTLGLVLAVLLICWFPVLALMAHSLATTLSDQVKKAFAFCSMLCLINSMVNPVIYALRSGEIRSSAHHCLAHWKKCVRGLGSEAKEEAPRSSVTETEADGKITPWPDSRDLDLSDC

Molecular target: Cannabinoid receptor 2 (Homo sapiens, UniProt P34972)

CCCCCCC(C)(C)c1cc(OC)c([C@H]2C=C(CO)[C@H]3C[C@@H]2C3(C)C)c(OC)c1
EC50: 83.8 nM
